In patent US20090124555A1, “USE OF HISTOGRANIN AND HISTOGRANIN-LIKE COMPOUNDS AS INHIBITORS OF P2X7 RECEPTOR FUNCTION AND AS ANTI-ARTHRITIC AGENTS” (priority 2005, published 2009):

Tests used:
[1] = molecular target: P2X7 receptor (in mice) (mouse) (UniProt Q9Z1M0); experiment: cell-based or functional assay
[2] = molecular target: P2X7 receptor (on rat alveolar macrophages) (rat) (UniProt Q64663); experiment: cell-based or functional assay

Q: Which results are given for [Val^1, Val^2, Arg^7]HN (peptide)?
A: IL-6 in peritoneal lavage of LPS-primed, ATP-challenged mice, C-4 0.1 mg i.p. (16 ng/ml without C-4) [1]: 9.5 ng/mL; IL-6 in peritoneal lavage of LPS-primed, ATP-challenged mice, C-4 0.3 mg i.p. (16 ng/ml without C-4) [1]: 7 ng/mL; half-maximal inhibition of ATP-induced IL-1.beta release from LPS-primed macrophages [2]: 1 nM; percent annexin-V positive cells after BzATP (PS flip), C-4 at 10^-8 M (% annexin-V positive cells) [2]: 5; percent annexin-V positive cells after BzATP (PS flip), C-4 at 10^-9 M (% annexin-V positive cells) [2]: 12; percent apoptotic macrophages after ATP (Hoechst / propidium iodide staining), C-4 at 10^-10M (% apoptotic macrophages) [2]: 54
